Several values for one entry are separate records, joined by “and”; a condition that tells them apart may be missing. Equal entries are not always repeated.
Target: T1, β sliding clamp (Escherichia coli, UniProt P0A988)
T1 chain: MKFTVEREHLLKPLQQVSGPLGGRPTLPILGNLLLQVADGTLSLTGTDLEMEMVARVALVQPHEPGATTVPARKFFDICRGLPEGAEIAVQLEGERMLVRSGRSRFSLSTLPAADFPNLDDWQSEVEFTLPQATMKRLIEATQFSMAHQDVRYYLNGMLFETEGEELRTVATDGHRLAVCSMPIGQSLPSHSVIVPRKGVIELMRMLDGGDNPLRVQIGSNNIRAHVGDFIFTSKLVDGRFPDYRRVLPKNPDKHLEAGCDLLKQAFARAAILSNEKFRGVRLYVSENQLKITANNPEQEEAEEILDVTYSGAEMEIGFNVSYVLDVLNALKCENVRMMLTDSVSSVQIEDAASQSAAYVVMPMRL
Assay: pyrene fluorescence intensity titration

B1: γ clamp loader complex (protein)
chain 1: SYQVLARKWRPQTFADVVGQEHVLTALANGLSLGRIHHAYLFSGTRGVGKTSIARLLAKGLNCETGITATPCGVCDNCREIEQGRFVDLIEIDAASRTKVEDTRDLLDNVQYAPARGRFKVYLIDEVHMLSRHSFNALLKTLEEPPEHVKFLLATTDPQKLPVTILSRCLQFHLKALDVEQIRHQLEHILNEEHIAHEPRALQLLARAAEGSLRDALSLTDQAIASGDGQVSTQAVSAMLGTLDDDQALSLVEAMVEANGERVMALINEAAARGIEWEALLVEMLGLLHRIAMVQLSPAALGNDMAAIELRMRELARTIPPTDIQLYYQTLLIGRKELPYAPDRRMGVEMTLLRALAFHPRMPLPEPEVPRQSFAPVAPTAVMTPTQVPPQPQSAPQQAPTVPLPETTSQVLAARQQLQRVQGATKAKKSEPAAATRARPVNNAALERLASVTDRVQARPVPSALEKAPAKKEAYRWKATTPVMQQKEVVATPKALKKALEHEKTPELAAKLAAEAIERDPWAAQVSQLSLPKLVEQVALNAWKEESDNAVCLHLRSSQRHLNNRGAQQKLAEALSMLKGSTVELTIVEDDNPAVRTPLEWRQAIYEEKLAQARESIIADNNIQTLRRFFDAELDEESIRPI
chain 2: MIRLYPEQLRAQLNEGLRAAYLLLGNDPLLLQESQDAVRQVAAAQGFEEHHTFSIDPNTDWNAIFSLCQAMSLFASRQTLLLLLPENGPNAAINEQLLTLTGLLHDDLLLIVRGNKLSKAQENAAWFTALANRSVQVTCQTPEQAQLPRWVAARAKQLNLELDDAANQVLCYCYEGNLLALAQALERLSLLWPDGKLTLPRVEQAVNDAAHFTPFHWVDALLMGKSKRALHILQQLRLEGSEPVILLRTLQRELLLLVNLKRQSAHTPLRALFDKHRVWQNRRGMMGEALNRLSQTQLRQAVQLLTRTELTLKQDYGQSVWAELEGLSLLLCHKPLADVFIDG
chain 3: MRWYPWLRPDFEKLVASYQAGRGHHALLIQALPGMGDDALIYALSRYLLCQQPQGHKSCGHCRGCQLMQAGTHPDYYTLAPEKGKNTLGVDAVREVTEKLNEHARLGGAKVVWVTDAALLTDAAANALLKTLEEPPAETWFFLATREPERLLATLRSRCRLHYLAPPPEQYAVTWLSREVTMSQDALLAALRLSAGSPGAALALFQGDNWQARETLCQALAYSVPSGDWYSLLAALNHEQAPARLHWLATLLMDALKRHHGAAQVTNVDVPGLVAELANHLSPSRLQAILGDVCHIREQLMSVTGINRELLITDLLLRIEHYLQPGVVLPVPHL
modifications: β E299C-pyrene, ATP
For B1, the Kd was 3.8 nM and 2.7 nM and 2.1 nM.
